Test results: PubChem BioAssay (NCI)
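Where inhibition never reached the appropriate level, the endpoint shown equals the highest concentration tested. Otherwise, values were interpolated linearly from a five-concentration, 48-hour dose response in 96-well plates. TGI: total growth inhibition.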

Tests used:
Experiment in all cases: growth of human tumour cells (NCI), 48 h
HCT-15 colon = system: HCT-15 colon
SNB-75 CNS = system: SNB-75 CNS
MDA-MB-435 = system: MDA-MB-435
A549 NSCLC = system: A549 NSCLC
NCI-H23 lung = system: NCI-H23 lung
TK-10 renal = system: TK-10 renal
SF-539 CNS = system: SF-539 CNS
T-47D breast = system: T-47D breast
UO-31 renal = system: UO-31 renal
IGROV1 ovarian = system: IGROV1 ovarian
OVCAR-5 ovarian = system: OVCAR-5 ovarian
HS 578T breast = system: HS 578T breast
SK-OV-3 ovarian = system: SK-OV-3 ovarian
SN12C renal = system: SN12C renal
KM12 colon = system: KM12 colon
MALME-3M melanoma = system: MALME-3M melanoma
NCI-H522 lung = system: NCI-H522 lung
SW-620 colon = system: SW-620 colon
DU-145 prostate = system: DU-145 prostate
SK-MEL-28 melanoma = system: SK-MEL-28 melanoma
HCT-116 colon = system: HCT-116 colon
ACHN renal = system: ACHN renal
MDA-MB-231 breast = system: MDA-MB-231 breast
MCF7 breast = system: MCF7 breast
COLO 205 colon = system: COLO 205 colon
NCI-H460 lung = system: NCI-H460 lung
OVCAR-8 ovarian = system: OVCAR-8 ovarian
SF-268 CNS = system: SF-268 CNS
SK-MEL-5 melanoma = system: SK-MEL-5 melanoma
786-0 renal = system: 786-0 renal
U251 CNS = system: U251 CNS
UACC-257 melanoma = system: UACC-257 melanoma
RXF 393 renal = system: RXF 393 renal
CAKI-1 renal = system: CAKI-1 renal
SNB-19 CNS = system: SNB-19 CNS
NCI-H322M lung = system: NCI-H322M lung
EKVX NSCLC = system: EKVX NSCLC
UACC-62 melanoma = system: UACC-62 melanoma
BT-549 breast = system: BT-549 breast
SR leukemia = system: SR leukemia
NCI/ADR-RES ovarian = system: NCI/ADR-RES ovarian
PC-3 prostate = system: PC-3 prostate
MDA-N = system: MDA-N
LOX IMVI melanoma = system: LOX IMVI melanoma
K-562 leukemia = system: K-562 leukemia
A498 renal = system: A498 renal
M14 melanoma = system: M14 melanoma
SK-MEL-2 melanoma = system: SK-MEL-2 melanoma
HOP-62 NSCLC = system: HOP-62 NSCLC
SF-295 CNS = system: SF-295 CNS
OVCAR-3 ovarian = system: OVCAR-3 ovarian
RPMI-8226 leukemia = system: RPMI-8226 leukemia
MOLT-4 leukemia = system: MOLT-4 leukemia
HT29 colon = system: HT29 colon
HOP-92 NSCLC = system: HOP-92 NSCLC

Measured: TGI

C[As](C)(=O)O
> 100 µM: all assays above
